Consider three compounds from BindingDB's records for PubMed 7908055 (Case Western Reserve University, 1994).

Chains of the proteins cited; added tags and fusions are not shown.
UniProt P14842, whole entry: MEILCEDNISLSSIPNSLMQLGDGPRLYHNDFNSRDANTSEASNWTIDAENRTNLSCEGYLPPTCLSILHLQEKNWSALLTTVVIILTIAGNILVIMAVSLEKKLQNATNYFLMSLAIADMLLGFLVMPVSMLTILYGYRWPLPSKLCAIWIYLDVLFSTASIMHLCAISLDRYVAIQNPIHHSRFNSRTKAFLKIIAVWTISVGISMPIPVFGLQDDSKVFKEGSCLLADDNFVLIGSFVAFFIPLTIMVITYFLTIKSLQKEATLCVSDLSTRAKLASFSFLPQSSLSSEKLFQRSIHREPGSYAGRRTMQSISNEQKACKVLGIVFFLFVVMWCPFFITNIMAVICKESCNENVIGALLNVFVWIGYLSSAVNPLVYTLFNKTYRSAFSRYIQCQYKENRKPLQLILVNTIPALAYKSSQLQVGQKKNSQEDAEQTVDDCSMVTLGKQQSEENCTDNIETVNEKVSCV
UniProt P61169, whole entry: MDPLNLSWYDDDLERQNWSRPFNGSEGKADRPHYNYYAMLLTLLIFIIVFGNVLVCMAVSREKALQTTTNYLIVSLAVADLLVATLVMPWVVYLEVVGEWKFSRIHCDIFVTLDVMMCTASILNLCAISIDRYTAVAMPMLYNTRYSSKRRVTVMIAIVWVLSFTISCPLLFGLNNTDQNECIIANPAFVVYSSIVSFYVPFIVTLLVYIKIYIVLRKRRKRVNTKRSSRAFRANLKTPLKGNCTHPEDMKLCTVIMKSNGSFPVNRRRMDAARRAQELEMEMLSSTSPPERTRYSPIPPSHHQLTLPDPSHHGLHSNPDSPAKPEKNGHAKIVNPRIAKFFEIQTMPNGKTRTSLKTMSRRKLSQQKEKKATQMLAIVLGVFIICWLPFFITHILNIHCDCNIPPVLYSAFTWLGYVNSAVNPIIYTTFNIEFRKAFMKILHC

Molecules are shown by their SMILES.

The target in assay [1] is T1, 5-hydroxytryptamine receptor 2C (Rattus norvegicus, UniProt P08909).
T1 sequence (P08909 whole entry): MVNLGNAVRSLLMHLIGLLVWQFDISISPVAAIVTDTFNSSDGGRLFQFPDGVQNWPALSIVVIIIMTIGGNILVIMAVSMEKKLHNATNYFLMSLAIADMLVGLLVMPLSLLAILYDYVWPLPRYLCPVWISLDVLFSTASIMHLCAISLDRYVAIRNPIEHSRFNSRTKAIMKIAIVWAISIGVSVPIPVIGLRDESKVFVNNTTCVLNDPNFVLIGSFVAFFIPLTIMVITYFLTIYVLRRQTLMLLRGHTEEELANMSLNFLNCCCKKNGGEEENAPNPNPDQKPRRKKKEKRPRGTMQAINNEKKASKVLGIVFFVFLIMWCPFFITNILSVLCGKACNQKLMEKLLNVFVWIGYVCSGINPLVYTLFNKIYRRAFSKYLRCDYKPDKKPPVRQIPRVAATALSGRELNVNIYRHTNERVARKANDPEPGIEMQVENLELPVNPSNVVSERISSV

Assay [2] deals with 5-hydroxytryptamine receptor 2A (Rattus norvegicus, UniProt P14842).
A further assay concerns the target D(2) dopamine receptor (Rattus norvegicus, UniProt P61169).

As usually defined, the Ki is the dissociation constant of the complex between target and ligand, obtained from inhibition or displacement. A high value points to a looser hold on the target.

The compound `CN1CCN(CCCN2c3ccccc3Sc3ccc(C(F)(F)F)cc32)CC1` returned an inhibitory constant (Ki) in assay [1] of 100 nM.

As for `CN(C)CCOC1=Cc2ccccc2Sc2ccc(Cl)cc21` [2-Chloro-11-(2-(dimethylamino)ethoxy)dibenzo(b,f)thiepin], the results for the Ki (in assay [2]; on D(2) dopamine receptor) were 0.63 nM and 1 nM, respectively.

`CC1CCN(CCCC(=O)c2ccc(F)cc2)CC1` [CAS_3575-80-2] showed a Ki in assay [2] of 79.4 nM.
